# Measured values from patent US8455439B2, “Antidotes for factor Xa inhibitors and methods of using the same in combination with blood coagulating agents” (Portola Pharmaceuticals, Inc., priority 2008, dated 2013).
# The chains behind the UniProt entries cited, without tags or fusion partners. Residues count along the entry.
# UniProt P00742, 41-179 partner limits assumed: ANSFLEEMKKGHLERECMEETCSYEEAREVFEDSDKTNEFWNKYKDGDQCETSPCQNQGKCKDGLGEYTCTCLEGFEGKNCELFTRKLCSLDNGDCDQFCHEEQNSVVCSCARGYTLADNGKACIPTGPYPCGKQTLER
# UniProt P00742, 235-488 limits assumed: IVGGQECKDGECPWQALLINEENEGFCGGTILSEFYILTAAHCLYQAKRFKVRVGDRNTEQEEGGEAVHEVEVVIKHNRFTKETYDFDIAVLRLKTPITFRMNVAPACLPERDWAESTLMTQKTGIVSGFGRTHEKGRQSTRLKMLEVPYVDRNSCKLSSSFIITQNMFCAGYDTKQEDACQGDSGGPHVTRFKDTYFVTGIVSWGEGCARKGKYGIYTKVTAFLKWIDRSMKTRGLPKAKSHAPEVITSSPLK
# Where “and” joins values, the source holds several entries; their conditions need not be identical. Equal values may be shown once.
# Assays:
# [1] = biological target: purified active fXa (Homo sapiens, UniProt P00742); assay: fXa chromogenic activity (Spectrozyme-fXa): inhibition by fXa inhibitor and reversal by antidote; type: biochemical
# [2] = tested on: pooled human plasma; assay: aPTT clotting assay, MLA Electra 800 automatic coagulation timer; type: biochemical; conditions: for Fold Change: aPTT
# Protocol: Two clotting assay formats were used to test the effects of factor Xa inhibitors and the antidote on clotting prolongation. In the first format, a 96-well plate was used to measure multiple samples at the same time. In the second assay format, aPTT was measured with a conventional coagulation instrument (MLA Electra 800 automatic coagulation timer).
# In FIG. 19, the effect of r-Antidote on reversal of anticoagulation by a low molecular weight heparin (LMWH enoxaparin, Sanofi-Aventis) was tested in a human plasma clotting assay. The effect of 1 antiXa Unit/mL LMWH on aPTT prolongation of plasma and the reversal of inhibitory effect was measured by a MLA Electra 800 Automatic coagulation timer. 100 μL pooled citrate anticoagulated human plasma was mixed with enoxaparin and different concentrations of antidote. Prior to measurement of clotting time, aPTT reagent (Actin FS, Dade Behring) and CaCl2 were added per manufacturer's instructions.
# [3] = tested on: pooled human plasma; assay: Prothrombin time (PT) clotting assay, MLA Electra 800 automatic coagulation timer; type: biochemical; conditions: for correction of anticoagulation: 1.9 μM recombinant antidote; for Fold Change: PT
# [4] = tested on: male C57Bl/6 mice; assay: In vivo mouse model, PK-PD of betrixaban with antidote; conditions: for % Correction: INR
# Protocol: 15 mg/kg was used for antidote treated group. A single intravenous (IV) injection of antidote (300 ug/200 μL) or vehicle (normal saline, 200 μL) was administered 5 minutes prior to the 1.5 hr. time point.
# Blood samples (0.5 mL) were obtained in 50 μL trisodium citrate. Whole blood INR was measured using Hemochron Jr. cartridges (International Technidyne Corporation) per the manufacturer's instructions.
# 15 mg/kg was used for antidote (300 pg/200 μL) treated group.
# Vehicle (control—1) or r-Antidote (1 injection) was administered 5 min prior to the 1 hr. time point. […] Mouse blood samples were taken at 2 hr. for vehicle (control—2) and r-Antidote (2 injections) treated mice.
# [5] = tested on: thrombin generation in human plasma; assay: Thrombin generation assay in platelet poor or platelet rich plasma; type: biochemical; conditions: 250 nM betrixaban, FIG. 23
# Protocol: PRP and PPP were prepared by spinning the anticoagulated blood at ˜100× gravity or 1000× gravity for 20 minutes, respectively, at room temperature. 75-100 microliter (uL) plasma was mixed with CaCl2 and Z-Gly-Gly-Arg-aminomethylcoumarin (Z-GGR-AMC, a thrombin fluorogenic substrate). Tissue factor (Innovin, Dade Behring) was added to initiate the generation of thrombin. For a typical experiment, the reaction mixture contained 15 millimolar (mM) Ca^2+, 100 micromolar (μM) Z-GGR-AMC, and 0.1 nanomolar (nM) tissue factor (TF) (Innovin). Thrombin formation was monitored continuously at 37° C. by a fluorometric plate reader (Molecular Devices) measuring the relative fluorescence units (RFU). Inhibitor and antidote, when present, were pre-incubated with plasma for 20 minutes at room temperature before initiation of thrombin generation.
# The results of various experiments using this assay may be found in FIGS. 4, 6, and 9.
# PRP and PPP were prepared by spinning the anticoagulated blood at ˜100× gravity or 1000× gravity for 20 minutes, respectively, at room temperature. […] Tissue factor (Innovin, Dade Behring) and CaCl2 were added to initiate the generation of thrombin. For a typical experiment, the reaction mixture contained 15 millimolar (mM) Ca^2+, 100 micromolar (μM) Z-GGR-AMC, and 0.1 nanomolar (nM) tissue factor (TF) (Innovin). Thrombin formation was monitored continuously at 37° C. by a fluorometric plate reader (Molecular Devices) measuring the relative fluorescence units (RFU). When present, the inhibitor and the antidote were pre-incubated with plasma for 15 minutes at room temperature before initiation of thrombin generation. Recombinant VIIa (rVIIa, Novoseven), when present, was added before addition of TF to initiate the reaction.
# [6] = 300 nM Betrixaban + 570 nM r-Antidote
# [7] = 300 nM Betrixaban + 760 nM r-Antidote
# [8] = 300 nM Betrixaban + […] r-Antidote
# [9] = 380 nM r-antidote, 400 nM betrixaban (Example 17)
# [10] = 400 nM Betrixaban + 380 nM rAntidote (Table 17)
# [11] = 400 nM Betrixaban + 570 nM rAntidote
# [12] = 400 nM Betrixaban + 760 nM rAntidote (Table 17)
# [13] = 400 nM Betrixaban + 1520 nM rAntidote
# [14] = 400 nM Betrixaban + […] rAntidote (Table 17)
# [15] = 760 nM r-antidote, 400 nM betrixaban (Example 17)
# [16] = 380 nM r-Antidote, 1 μM rivaroxaban
# [17] = 760 nM r-antidote + 0.55 nM rVIIa, 1 μM rivaroxaban
# [18] = 1 μM apixaban + 380 nM rAntidote
# [19] = 1 μM apixaban + 760 nM rAntidote
# [20] = 1 μM apixaban + 1.52 μM rAntidote
# [21] = […] apixaban + 1.52 μM rAntidote
# [22] = […] apixaban + 1.90 μM rAntidote
molecule,measurement,setting,value
"r-Antidote: fXa derivative lacking amino acid residues 6-39 of SEQ ID NO. 3, S379A, expressed in CHO cells, linker removed (SEQ ID NO. 13) (protein) ANSFLFWNKYKDGDQCETSPCQNQGKCKDGLGEYTCTCLEGFEGKNCELFTRKLCSLDNGDCDQFCHEEQNSVVCSCARGYTLADNGKACIPTGPYPCGKQTLERIVGGQECKDGECPWQALLINEENEGFCGGTILSEFYILTAAHCLYQAKRFKVRVGDRNTEQEEGGEAVHEVEVVIKHNRFTKETYDFDIAVLRLKTPITFRMNVAPACLPERDWAESTLMTQKTGIVSGFGRTHEKGRQSTRLKMLEVPYVDRNSCKLSSSFIITQNMFCAGYDTKQEDACQGDAGGPHVTRFKDTYFVTGIVSWGEGCARKGKYGIYTKVTAFLKWIDRSMKTRGLPKAKSHAPEVITSSPLK",reversal of apixaban,"[1]; 186 nM r-Antidote, apixaban",> 70%
same,correction of inhibition,"[1]; 186 nM r-Antidote, betrixaban and rivaroxaban",> 95%
same,affinity compared with the plasma derived protein,[1]; in the in vitro assays,comparable affinity
same,% Correction of anti-coagulation,[2]; [6],88%
same,aPTT,[2]; [6],38.3 s
same,% Correction of anti-coagulation,[2]; [7],88%
same,aPTT,[2]; [7],38.2 s
same,% Correction of anti-coagulation,[2]; [8],90%
same,aPTT,[2]; [8],38.1 s
same,aPTT,"[2]; 380 nM r-Antidote + 258 nM fIX, 400 nM betrixaban",33 s
same,aPTT,[2]; [9],38.6 s
same,correction of aPTT,[2]; [9],25%
same,% Correction of anti-coagulation,[2]; [10],61%
same,aPTT,[2]; [10],47.1 s
same,% Correction of anti-coagulation,[2]; [11],85%
same,aPTT,[2]; [11],39.9 s
same,% Correction of anti-coagulation,[2]; [12],85%
same,aPTT,[2]; [12],39.9 s
same,% Correction of anti-coagulation,[2]; [13],86%
same,aPTT,[2]; [13],39.4 s
same,% Correction of anti-coagulation,[2]; [14],92%
same,aPTT,[2]; [14],37.8 s
same,aPTT,"[2]; 760 nM r-Antidote + 258 nM fIX, 400 nM betrixaban",26.9 s
same,aPTT,[2]; [15],31.2 s
same,correction of aPTT,[2]; [15],40%
same,aPTT,"[2]; 1520 nM rAntidote alone, no inhibitor",38.8 s
same,"reversal of the anticoagulant effect, combination","[2]; […] r-Antidote + 258 nM fIX, 400 nM betrixaban, FIG. 25",complete in-vitro reversal
same,correction of aPTT,"[2]; […] r-antidote, 400 nM betrixaban (Example 17)",42%
same,Fold Change,[2]; [6],1.09
same,Fold Change,[2]; [7],1.09
same,Fold Change,[2]; [8],1.08
same,Fold Change,[2]; 400 nM Betrixaban + 380 nM rAntidote,1.34
same,Fold Change,[2]; [11],1.13
same,Fold Change,[2]; 400 nM Betrixaban + 760 nM rAntidote,1.13
same,Fold Change,[2]; [13],1.12
same,Fold Change,[2]; 400 nM Betrixaban + […] rAntidote,1.07
same,Fold Change,[2]; 1520 nM rAntidote alone,1.10
same,PT,[3]; [16],21.5 ± 0.2 s
same,correction of PT,[3]; [16],14%
same,effect on PT,"[3]; 380 nM r-Antidote, absence of rivaroxaban, FIG. 24A",slightly reduced the PT
same,resulting PT,"[3]; 380 nM r-antidote + 2.2 nM rVIIa, 1 μM rivaroxaban (complete correction)",12 s
same,"reversal of rivaroxaban induced anticoagulation, combination","[3]; 760 nM r-Antidote + 0.55 nM rVIIa, 1 μM rivaroxaban, listed as r-antidote",close to complete correction
same,correction of PT,"[3]; 760 nM r-Antidote, 1 μM rivaroxaban",28%
same,resulting PT,[3]; [17],12 s
same,"reversal of rivaroxaban induced anticoagulation, combination",[3]; [17],great reversion
same,PT,[3]; [18],15.3 s
same,PT,[3]; [19],14.9 s
same,PT,[3]; [20],14.2 s
same,PT,[3]; 1 μM apixaban + […] rAntidote,14.2 s
same,PT,"[3]; 1.52 μM rAntidote alone, no inhibitor",14 s
same,PT,"[3]; 1.90 μM rAntidote alone, no inhibitor",14.2 s
same,correction of anticoagulation,"[3]; 1 μM rivaroxaban, FIG. 20",100%
same,correction of anticoagulation,[3]; […] apixaban,97%
same,Fold Change,[3]; [18],1.09
same,Fold Change,[3]; [19],1.06
same,Fold Change,[3]; [20],1.01
same,Fold Change,[3]; 1 μM apixaban + […] rAntidote,1.01
same,Fold Change,[3]; [21],1.04
same,Fold Change,[3]; [22],1.01
same,PT,[3]; [21],14.6 s
same,PT,[3]; [22],14.3 s
same,% Correction,"[4]; Mean, r-Antidote treated mice",77.3%
same,% Correction,[4]; individual r-Antidote treated mice,50.0% and 94.1% and 80.0% and 93.6%
same,Betrixaban,[4]; Mean of 4 r-Antidote treated mice,381 ng/mL
same,Measured INR,"[4]; Mean, r-Antidote treated mice",1.3
same,further increase of betrixaban level in plasma vs single injection,"[4]; second IV injection r-Antidote 312 ug, 2 hr, FIG. 22A",less than 2 fold
same,increase of betrixaban level in plasma vs vehicle control,"[4]; single IV injection r-Antidote 312 ug, betrixaban 15 mg/kg PO, 1 hr, FIG. 22A",more than 8 fold
same,correction of ex vivo whole blood INR / reduction of functional betrixaban,"[4]; single injection r-Antidote 300 μg IV after betrixaban 15 mg/kg PO, mice",> 50%
same,"thrombin generation activity, combination effect","[5]; r-Antidote + 100 nM rVIIa, at each r-Antidote concentration",further increased thrombin generation activity
same,"reversal of anticoagulant effect of betrixaban, relative thrombin generation activity",[5]; r-Antidote alone,independently reversed the anticoagulant effect
